PubChem BioAssay AID602472 (Sanford-Burnham Center for Chemical Genomics, 2012)
Only a part is listed here, and it is no random draw. Active and inactive are the calls of the source. Cut-off read from the data, not from the text of the source: active = inhibition above about 40%; inactive = the rest.

Test: NF-kB reporter suppression in CF airway cells – cell-based, GFP fluorescence, single concentration, confirmation (AID 602472);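 note: stimulus PAF is a Pseudomonas aeruginosa filtrate and not platelet activating factor; plate controls were DMSO wells with stimulus for no effect and unstimulated DMSO wells for full effect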
Conditions: KKLEB CF airway cells, PAF-induced NF-kB-GFP fluorescence, overnight; at 5 µM; hits give high values
Procedure, shortened: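 Material: KKLEB immortalized cystic fibrosis airway epithelial cells with NFkB-GFP reporter; buffer or medium: 2% FBS cell medium, serum-free stimulus medium; also added: PAF stimulation; dosing: 5 µM single dose; times: 2 h compound pretreatment at 37 °C, overnight PAF exposure; detection: GFP fluorescence of NFkB reporter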

| SMILES | inhibition |
| --- | --- |
| CCCCn1nnnc1C(c1cccs1)N1CCC(n2c(=O)[nH]c3ccccc32)CC1 (stereo unspecified) | inactive: 12.9% |
